Here are results for one substance from patent publication US12156886B2, “Methods of increasing blood oxygen saturation” (ThermoLife International, LLC, priority 2020, dated 2024).

The subject of this data set is methemoglobinemia induced by sodium nitrite. In words: Sodium nitrite induced methemoglobinemia self-experiment, SpO2 and heart rate monitoring (Example 10). The note with it: in vivo.

On to sodium nitrite and citric acid, for which the side effects entry is recorded as “gastrointestinal distress, dizziness, brain fog, confusion, difficulty in breathing, migraine, abnormal heart palpitations”.
